## Apparent affinities of Ab-14 variants for a coronavirus HR2 peptide

Target peptide (SARS-CoV-2 spike, HR2 region): PDVDLGDISGINAS

Parent: Ab-14, a human scFv built as VH, a 15-residue (Gly4Ser)3 linker, VL. Only the CDRs of the heavy chain vary.
VH: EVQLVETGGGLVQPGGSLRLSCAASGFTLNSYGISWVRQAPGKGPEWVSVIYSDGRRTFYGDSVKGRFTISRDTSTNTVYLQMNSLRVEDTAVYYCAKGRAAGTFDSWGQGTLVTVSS
VL: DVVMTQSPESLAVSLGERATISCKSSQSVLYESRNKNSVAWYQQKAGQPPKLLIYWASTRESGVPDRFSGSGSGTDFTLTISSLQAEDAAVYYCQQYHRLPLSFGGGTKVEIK

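These sequences belong to a second round, designed from the earlier measurements on random variants of the parent. Their group label is 14H_En_HC (En: ensemble of fine-tuned language models; HC: hill climbing; a sequence that several methods proposed may carry one label only). The assay is AlphaSeq: two haploid yeast populations carry antibody and antigen on their surface. The frequency of each diploid, read from paired DNA barcodes, reflects how well the two displayed proteins bind. Read counts were normalised to the haploid input and turned into Kd by a linear fit to BCL2-family pairs of known affinity, for each replicate. There are six technical replicates.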

The parent's heavy chain CDRs are GFTLNSYGIS, VIYSDGRRTFYGDSVK, GRAAGTFDS; each variant's own CDRs replace them letter for letter.
Numbers give log10(Kd / nM), so 0 is 1 nM and 3 is 1 µM. Smaller is tighter.
Replicates are averaged; those with no signal do not enter the mean.
"ND" marks a missing value. The strain was present, yet no cells mated with the target were sequenced in that replicate, which points to weak or no binding.

With GFDLNEYGIS / VIYADGRRTFYIDSVK / GEAAGTFDL the result was -0.27, -0.07, -0.47, -0.57, -0.64, -0.44 (mean -0.41; controls 1 of 18).
With GFDLNEYGIS / VIYADGRRTFYADSVK / GENGGTFDS the result was 0.52, 0.21, 0.65, 0.05, 0.29, 0.44 (mean 0.36; controls 0 of 18).
With GFSLDEYGIS / VIYADGRRTFYSDDVK / GNVAGTFDV the result was -0.11, -0.19, -0.29, -0.19, 0.02, -0.27 (mean -0.17; controls 0 of 18).
With GFDLNEYGIS / VIYADGLRTFYTDSVK / GEFAGTFDL the result was 0.79, 0.39, 0.36, 0.47, 0.17, 2.24 (mean 0.74; controls 0 of 18).
With GFGLDEYGIS / VIYADGRRTFYADSVK / GENAGTFVM the result was ND, ND, ND, ND, 2.72, ND (controls 0 of 18).
With GFDINEYGIS / VIYADGRRTAYADSVK / GETAGTFDS the result was -0.40, 1.48, 0.01, 0.05, 0.20, 0.41 (mean 0.29; controls 0 of 18).
With GFDLNEYGIS / VIYADGVRTFYSDSVK / GQLAGTFDS the result was -0.46, 0.04, 0.69, -0.28, -0.69, 0.19 (mean -0.09; controls 0 of 18).
With GFDLDEYGIS / VIYADGMRTFYTDSVK / GEAAGTFDI the result was 0.74, 0.11, 0.22, 0.49, 0.08, 0.12 (mean 0.29; controls 1 of 18).
With GFDLNEYGIS / VIYADGRRTFYADSVK / GHVAGTFVS the result was 0.15, 0.18, 0.33, 0.18, -0.04, 0.16 (mean 0.16; controls 1 of 18).
With GFDLNEYGIS / VIYADGRRTYYADSVK / GTNGGTFDV the result was 0.55, 0.26, 0.20, 0.43, 0.67, 0.91 (mean 0.50; controls 0 of 18).
With GFDLNEYGIS / VIYADGMRTQYIDSVK / GETAGTFDV the result was -0.12, -0.52, -0.10, -0.53, -0.62, -0.39 (mean -0.38; controls 0 of 18).
With GFDLNEYGIS / VIYADGRRTAYIDSVK / GHAAGTFDA the result was -0.22, -0.10, -0.55, -0.99, -0.61, -0.20 (mean -0.45; controls 0 of 18).
With GFDLNEYGIS / VIYADGMRTQYSDSVK / GNVAGTFDV the result was -0.40, -0.44, -0.52, -0.41, -0.42, -0.60 (mean -0.46; controls 1 of 18).
With GFDLNEYGIS / VIYADGVRSFYADSVK / GENAGTFDV the result was ND, -0.79, 0.86, ND, -0.19, -0.37 (mean -0.12; controls 0 of 18).
With GFNLNEYGIS / VIYADGRRTFYADSVK / GGTAGTFDV the result was 0.03, -0.01, 0.00, -0.14, 0.03, -0.08 (mean -0.03; controls 1 of 18).
With GFDLNEYGIS / VIYADGRRTFYADSVK / GNVAGTFSQ the result was 0.32, 0.08, 0.20, 0.01, 0.17, 0.09 (mean 0.15; controls 0 of 18).
With GFNLDEYGIS / VIYADGRRTFYSDNVK / GEVGGTFDI the result was 0.50, -0.03, 0.27, -0.10, -0.41, -0.15 (mean 0.01; controls 0 of 18).
With GFDLNEYGIS / VIYADGQRTAYTDSVK / GHAAGTFDL the result was -0.19, 1.66, 0.28, 0.09, -0.19, 0.53 (mean 0.36; controls 0 of 18).
With GFDLNEYGIS / VIYADGRRTQYIDSVK / GEQAGTFDT the result was -0.18, -0.32, -0.18, -0.01, -0.01, 0.14 (mean -0.09; controls 0 of 18).
With GFQLDEYGIS / VIYADGKRTFYQDSVK / GEVAGTFDS the result was -0.10, -0.46, -0.01, -0.60, -0.84, -0.30 (mean -0.38; controls 0 of 18).
With GFDLNEYGIS / VIYADGRRTFYADSVK / GKIAGTFNQ the result was -0.33, -0.60, -0.53, -0.65, -0.65, -0.62 (mean -0.56; controls 0 of 18).
With GFDLNEYGIS / VIYADGQRTFYSDSVK / GNQAGTFDV the result was -0.25, -0.30, -0.61, -0.53, -0.38, -0.27 (mean -0.39; controls 0 of 18).
With GFDLDEYGIS / VIYADGRRTFYKDSVK / GTNAGTFDM the result was -0.87, -1.22, -0.49, -1.14, -1.11, -1.05 (mean -0.98; controls 0 of 18).
With GFDLNEYGIS / VIYADGVRTFYTDSVK / GQLAGTFDS the result was 0.30, -0.17, 0.09, 0.01, -0.42, -0.30 (mean -0.08; controls 0 of 18).
With GFDLNEYGIS / VIYADGRRTYYIDSVK / GTNAGTFDV the result was 1.32, 2.27, 0.04, 1.01, 1.06, 0.75 (mean 1.07; controls 0 of 18).
With GFDLDEYGIS / VIYADGRRTFYADSVK / GENAGTFDQ the result was ND, -0.75, -0.26, -0.81, -0.32, -0.82 (mean -0.59; controls 0 of 18).
With GFDLSEYGIS / VIYADGRRTFYTDSVK / GETAGTFDE the result was 0.06, -0.37, -0.10, -0.70, -0.38, -0.68 (mean -0.36; controls 0 of 18).
With GFDLNEYGIS / VIYADGRRTQYADSVK / GEQAGTFDS the result was -0.95, -0.75, -1.02, -1.27, -0.55, -1.19 (mean -0.95; controls 0 of 18).
With GFDLEDYGIS / VIYADGRRTAYIDSVK / GETAGTFDV the result was -0.89, ND, -1.14, ND, -1.72, -0.47 (mean -1.06; controls 0 of 18).
With GFNLNEYGIS / VIYADGRRTFYSDSVK / GENGGTFDV the result was -0.55, 0.46, -0.52, -0.20, 0.53, 0.66 (mean 0.06; controls 0 of 18).
With GFDLNEYGIS / VIYADGARTFYADSVK / GNLAGTFDQ the result was -0.30, -0.42, -0.57, -0.11, -0.62, -0.39 (mean -0.40; controls 1 of 18).
With GFDLNEYGIS / VIYADGRRTSYQDSVK / GEAAGTFDV the result was 0.29, -0.59, 0.14, -0.57, -0.51, 0.18 (mean -0.18; controls 0 of 18).
With GFNLNEYGIS / VIYADGMRTFYSDSVK / GETAGTFDV the result was -0.38, -0.36, -0.79, -0.96, -0.71, -0.30 (mean -0.58; controls 0 of 18).
With GFDLNEYGIS / VIYADGRRTFYADSVK / GSQAGTFNM the result was -0.42, -0.86, -0.72, -0.92, -1.02, -1.08 (mean -0.84; controls 0 of 18).
With GFDLNEYGIS / VIYADGRRTFYTDSVK / GQLAGTFDS the result was -0.36, -0.51, -0.70, -0.65, -0.58, -0.45 (mean -0.54; controls 1 of 18).
With GFDLNEYGIS / VIYADGRRTYYSDSVK / GNVAGTFDK the result was -0.08, 0.38, -0.67, -0.35, -0.63, -0.54 (mean -0.32; controls 0 of 18).
With GFDIDEYGIS / VIYADGRRTYYADSVK / GTNAGTFDS the result was -0.37, -0.15, -0.59, -0.42, 0.01, -0.46 (mean -0.33; controls 1 of 18).
With GFDLNEYGIS / VIYADGMRTAYADSVK / GKAAGTFDS the result was 0.91, 0.12, 0.26, 0.44, -0.42, -0.06 (mean 0.21; controls 1 of 18).
With GFDLNEYGIS / VIYADGRRTFYSDSVK / GTVAGTFDA the result was -0.31, -0.86, -1.00, -0.99, -1.24, -0.56 (mean -0.83; controls 0 of 18).
With GFDLDEYGIS / VIYADGKRTFYIDSVK / GETAGTFDS the result was -0.26, -1.05, -1.11, -1.13, -0.80, -0.86 (mean -0.87; controls 0 of 18).
With GFDLNEYGIS / VIYADGRRTFYADSVK / GQNAGTFDI the result was 0.45, 0.44, -0.14, -0.22, 0.62, 0.01 (mean 0.19; controls 0 of 18).
With GFDLNEYGIS / VIYADGRRTQYIDSVK / GNVAGTFDI the result was ND, -1.37, -0.09, -0.22, 0.58, -1.05 (mean -0.43; controls 0 of 18).

The 3 strongest on average among those seen in every replicate, once more:

The variant GFDLDEYGIS / VIYADGRRTFYKDSVK / GTNAGTFDM showed -0.87, -1.22, -0.49, -1.14, -1.11, -1.05 (mean -0.98; controls 0 of 18).
The variant GFDLNEYGIS / VIYADGRRTQYADSVK / GEQAGTFDS showed -0.95, -0.75, -1.02, -1.27, -0.55, -1.19 (mean -0.95; controls 0 of 18).
The variant GFDLDEYGIS / VIYADGKRTFYIDSVK / GETAGTFDS showed -0.26, -1.05, -1.11, -1.13, -0.80, -0.86 (mean -0.87; controls 0 of 18).

The authors' rule: three or more of the six replicates give a measured affinity, fewer mean a poor binder.
Of ten entries with the parent sequence, four were seen in most replicates (averages 0.34 to 2.37), three in one and three in none, so single entries are noisy.
As a blank, each scFv also met three strains without target: over all heavy chain designs, 1% of these pairings were detected, typically at 2.08 and seldom below 0.84. Also given: how often the same scFv was detected with the empty control strains.
The range of this assay differs from that of the first round, and the authors advise against merging the two.

From the AlphaSeq antibody data of Li et al. 2023 (doi:10.1038/s41467-023-39022-2), copy in the FLAb collection.